Assay results as given in patent US8912343B2, “Solid forms of (1r,4r)-6′-fluoro-(N, N-dimethyl)-4-phenyl-4′,9′-dihydro-3′H-spiro[cyclohexane-1,1′-pyrano-[3,4,b]indol]-4-amine and sulfuric acid” (dated 2014).

Assays:
[1] = Physical and chemical stability (storage, purity by HPLC, PXRD)
[2] = Solubility in water (saturated solutions, concentration by HPLC); details: RT

## CN(C)[C@]1(c2ccccc2)CC[C@]2(CC1)OCCc1c3cc(F)ccc3[nH]c12
[1]; 4 weeks 40° C./75% r.h. and 1 week 80° C.
  outcome of stability testing (summary): clearly changes
[1]; closed vials
  PXRD after 1 week at 80° C.: new peaks
[1]; closed vials, HPLC
  Purity after 1 week at 80° C.: 99.7 area %
[1]; open vials
  PXRD after 4 weeks at 40° C., 75% r.h.: new peaks
[1]; open vials, HPLC
  Purity after 4 weeks at 40° C., 75% r.h.: 99.5 area %
[1]; reference, before storage, HPLC
  Ref. Purity: 99.7 area %
[2]; bidest H2O, saturated solution, 24 h equilibration time, HPLC
  solubility: <0.30 µg/mL
[2]; pH of the saturated solution in bidest H2O, 24 h
  resulting pH: 8.4
